{"source": "patent US20230391730A1", "about": "“INHIBITORS OF THE BROMODOMAIN PHD FINGER TRANSCRIPTION FACTOR (BPTF) AS ANTI-CANCER AGENTS” (Regents of the University of Minnesota, priority 2020, published 2023)", "target": "BPTF bromodomain (Homo sapiens, UniProt Q12830)", "assay": "BPTF AlphaScreen competitive inhibition assay", "format": "binding", "parameters": "30 nM for His9-tagged BPTF bromodomain and 50 nM for the biotinylated peptide were used; made in house"}
{"smiles": "Cn1ncc(NC2CNC2)c(Cl)c1=O", "note": "[Compound 4, 5-(azetidin-3-ylamino)-4-chloro-2-methylpyridazin-3(2H)-one]", "values": [{"measurement": "IC50", "result": 8.7, "unit": "µM"}, {"measurement": "L.E. (ligand efficiency)", "setting": "from BPTF AlphaScreen", "result": 0.49}]}
